Chains of the proteins cited; added tags and fusions are not shown.
UniProt Q9BXC0, whole entry: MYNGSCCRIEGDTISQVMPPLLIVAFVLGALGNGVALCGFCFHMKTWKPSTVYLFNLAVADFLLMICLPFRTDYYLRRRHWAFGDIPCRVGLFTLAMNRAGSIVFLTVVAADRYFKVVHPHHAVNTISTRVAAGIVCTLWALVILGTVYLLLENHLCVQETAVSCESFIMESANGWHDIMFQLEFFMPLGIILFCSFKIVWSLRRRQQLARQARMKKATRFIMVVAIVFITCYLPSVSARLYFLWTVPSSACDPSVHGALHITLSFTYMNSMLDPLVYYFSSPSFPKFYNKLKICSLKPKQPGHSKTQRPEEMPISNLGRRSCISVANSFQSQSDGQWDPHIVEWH

In article doi:10.1101/2025.05.02.651384v1 (biorxiv, 2025):

Target: HCAR1 (GPR81) (Homo sapiens, UniProt Q9BXC0)
Assay: ebBRET Gαi2 activation
Assay type: cell-based
Details: Gαi2, 37 °C, agonist

EC50	SMILES
2500 nM	CCOc1cc(Cl)c(C(=O)NC(=O)Nc2nc3ccc(CN4CCN(C)CC4)cc3s2)cc1-c1ccn[nH]1
750 nM	CCOc1cc(Cl)c(C(=O)NC(=O)Nc2nc3ccc(S(=O)(=O)C4CCN(C)CC4)cc3s2)cc1-n1cccn1
480 nM	CCOc1cc(Cl)c(C(=O)NC(=O)Nc2nc3ccc(CN4CCN(C)CC4)cc3s2)cc1N1CCOCC1
450 nM	CCOc1cc(Cl)c(C(=O)NC(=O)Nc2nc3ccc(CN4CCN(C)CC4)cc3s2)cc1-n1cccn1

Further lines, the molecule ahead of its results:

SMILES	EC50
CCOc1cc(Cl)c(C(=O)Nc2nc3ccc(S(=O)(=O)CCCN4CCN(C)CC4)cc3s2)cc1N1CCOCC1	1300 nM
CCOc1cc(Cl)c(C(=O)Nc2nc3ccc(S(=O)(=O)CCCN4CCN(C)CC4)cc3s2)cc1N1C[C@@H](C)O[C@@H](C)C1	230 nM
CCOc1cc(Cl)c(-c2ncc(-c3nc4ccc(S(=O)(=O)C5CCN(C)CC5)cc4s3)c(=O)[nH]2)cc1N1CCOCC1	1100 nM
